{"sequences": {"note": "The chains behind the UniProt entries cited, without tags or fusion partners.", "UniProt P31652, whole entry": "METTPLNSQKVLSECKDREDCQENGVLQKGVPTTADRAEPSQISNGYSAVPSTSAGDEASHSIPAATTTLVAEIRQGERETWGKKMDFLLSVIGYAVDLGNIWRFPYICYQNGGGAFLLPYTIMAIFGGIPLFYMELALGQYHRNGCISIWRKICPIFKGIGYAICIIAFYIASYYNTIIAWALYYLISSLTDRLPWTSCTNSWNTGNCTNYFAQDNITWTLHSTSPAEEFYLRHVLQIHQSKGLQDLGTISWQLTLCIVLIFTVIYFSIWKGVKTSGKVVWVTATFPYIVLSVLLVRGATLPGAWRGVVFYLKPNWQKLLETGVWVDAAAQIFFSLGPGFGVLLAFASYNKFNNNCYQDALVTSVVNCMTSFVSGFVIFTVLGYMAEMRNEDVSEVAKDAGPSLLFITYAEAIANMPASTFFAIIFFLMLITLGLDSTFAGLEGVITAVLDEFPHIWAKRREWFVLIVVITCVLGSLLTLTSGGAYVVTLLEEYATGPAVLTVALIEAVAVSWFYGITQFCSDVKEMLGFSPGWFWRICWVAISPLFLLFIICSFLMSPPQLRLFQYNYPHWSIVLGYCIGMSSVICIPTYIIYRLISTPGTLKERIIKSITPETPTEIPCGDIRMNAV"}, "source": "paper PMC5995653", "about": "(Journal of pharmacological and toxicological methods, 2018)", "origin": "cited, not measured here", "target": "rSERT (Rattus norvegicus, UniProt P31652)", "conditions": "read-out: Reuptake inhibition activity IC50, rSERT, synaptosomes; cited from earlier work", "data": [{"smiles": "c1ccc(CCCN2CCN(CCOC(c3ccccc3)c3ccccc3)CC2)cc1", "note": "[GBR12935]", "values": [{"measurement": "IC50", "value": "289 ± 29", "unit": "nM"}]}]}
